Values quoted from earlier work in patent publication US5064812A, “Metal complexes of N-acetyl-glucosaminyl-N-acetyl-muramoyl-L-alanyl-D-isoglutaminyl-(L)-mes o-diamino-pimelyl-(D-amide)-(L)-D-alanyl-D-alanine and their use in pharmaceuticals” (Sour Pliva, priority 1986, dated 1991).

Conditions: prior art literature

Question: With “N-acetyl-glucosaminyl-N-acetyl-muramoyl-L-alanyl-D-isoglutaminyl-(L)-meso- diamino-pimelyl-(D-amide)-(L)-D-alanyl-D-alanine [PMG]” as the substance, how does the pyrogenicity read?
Answer: practically no toxicity or pyrogenicity

Question: What about the toxicity of the same substance?
Answer: practically no toxicity
